The test system of one test is Spodoptera litura. Put plainly: Insecticidal activity against Spodoptera litura assessed as mortality at 500 ppm by filter paper method.
A further test concerns Delphacodes. Put plainly: Insecticidal activity against Delphacodes striatellus assessed as mortality at 500 ppm by test tube method.

The mortality is the percentage killed. For the compound `CCN(C(=O)OCC(C)C)P(C)(=S)Oc1ccc([N+](=O)[O-])c(C)c1` (configuration not stated), the results for the mortality in the test with Spodoptera litura and with Delphacodes were 100% and 13%, respectively.

For the origin of these results see ChEMBL document CHEMBL3046763 (J Pestic Sci, 2000).
